Where two headings read alike, the source gives them in different places.
What was measured:
[1] = tested on: HCVcc-1a/2a-Rluc; test: microbe, parasite or virus in culture; format: cell-based, hepatitis C virus; conditions: read-out: EC50 of the individual inhibitor in combination experiments
[2] = tested on: genotype 1a HCV replicons; format: cell-based, hepatitis C virus genotype 1a
[3] = tested on: HCVcc-2a/2a-Rluc; test: microbe, parasite or virus in culture; format: cell-based; conditions: Hepatitis C virus, Huh7.5, 72 h, read-out: EC50 HCVcc-2a/2a-Rluc
[4] = tested on: HCVcc-1a/2a
[5] = tested on: genotype 1b HCVpp; test: microbe, parasite or virus in culture; format: cell-based; conditions: Hepatitis C virus
[6] = tested on: HCVcc-1b/2a-Rluc; test: microbe, parasite or virus in culture; format: cell-based; conditions: Hepatitis C virus, Huh7.5, 72 h, read-out: EC50 HCVcc-1b/2a-Rluc
[7] = tested on: genotype 1b HCV replicons; format: cell-based, hepatitis C virus genotype 1b
[8] = tested on: HCVcc-1a/2a-Rluc; test: microbe, parasite or virus in culture; format: cell-based; conditions: Hepatitis C virus, Huh7.5, 72 h, read-out: EC50 HCVcc-1a/2a-Rluc
[9] = tested on: pseudovirus with MLV envelope proteins; format: cell-based
[10] = tested on: Influenza virus; test: microbe, parasite or virus in culture; conditions: unidentified influenza virus, MDCK, read-out: EC50 Influenza virus

Structure (SMILES)	EC50 ([1]; Hepatitis C virus) [nM]	inhibition of genotype 1a HCV replicons (in words) [2]	EC50 [3] [nM]	EC50 [1] [nM]	average infected cells/focus [4] [infected cells/focus]	EC50 ([5]; read-out: EC50 range, genotype 1b HCVpp) [nM]	EC50 ([5]; read-out: median EC50, genotype 1b HCVpp) [nM]	EC50 [6] [nM]	inhibition of genotype 1b HCV replicons (in words) [7]	EC50 [8] [nM]	inhibition of pseudovirus with MLV envelope proteins (in words) [9]	EC50 [10] [nM]
COC(=O)N[C@H](C(=O)N1CCC[C@H]1c1nc(-c2ccc(-c3ccc(-c4c[nH]c([C@@H]5CCCN5C(=O)[C@@H](NC(=O)OC)C(C)C)n4)cc3)cc2)c[nH]1)C(C)C [BMS-790052, reference compound]	0.021											
CCCCCNc1nc(Nc2ccc([N+](=O)[O-])cc2)nc(OCC(F)(F)F)n1 [EI-1, N ^2-(4-nitrophenyl)-N ^4-pentyl-6-(2,2,2-trifluoroethoxy)-1,3,5-triazine-2,4-diamine]	39	no inhibition	50100	29	6	5 to 200	27	12	no inhibition	24	not inhibited	> 50000
